Tests used:
[1] = in vivo
albumin = conditions: cited from earlier work
Method: The therapeutic target often consists of a Cmin value of 10 mg/L,[9] although higher trough concentrations of 15 or 20 mg/L can be desired in severe infections. […] Note that renal function expressed as eGFR was not found to have an impact on CLKRT, consistent with the results of Aulin et al.[19] […] The model predicts an increase in 0.016 L/h and 0.19 L, respectively, for an increment of 1 kg of body weight.

[2] = in vivo; remark: listed apart in the source
[3] = human, in vivo
[4] = human, in vivo; cited from earlier work

**Q.** With teicoplanin as the substance, how does the “adverse effect, including nephrotoxicity or hepatotoxicity, from the treatment” value [1] read?
**A.** No patient experienced any adverse effect

**Q.** And the bound to albumin (albumin)?
**A.** > 90%

**Q.** What about the “KD, dissociation constant of the drug–albumin complex” value (albumin; critically ill paediatric patients, population model estimate, ref Aulin et al., 19) of the same substance?
**A.** 64.2 µg/mL

**Q.** And the “CLD (intercompartmental clearance), θCLD” value [2]?
**A.** 0.292 L/h

**Q.** What about the “CLD, fixed effect estimate” value [2] of the same substance?
**A.** 0.29 L/h

**Q.** What about the “CLKRT (haemofilter clearance), θCLKRT” value [2] of the same substance?
**A.** 0.119 L/h

**Q.** And the “CLKRT lower than CLR” value [2]?
**A.** 30%

**Q.** What about the “CLKRT, fixed effect estimate” value [2] of the same substance?
**A.** 0.11 L/h

**Q.** What about the “CLR (renal clearance), θCLR” value [2] of the same substance?
**A.** 0.169 L/h

**Q.** And the “CLR in patients with CKRT” value [2]?
**A.** ^aCLR in patients with CKRT was estimated to be zero.

**Q.** And the “CLR, fixed effect estimate” value [2]?
**A.** 0.17 L/h

**Q.** What about the “V1 (apparent volume of distribution of the central compartment), θV1” value [2] of the same substance?
**A.** θV1=1.56(17) L

**Q.** What about the “V1, fixed effect estimate” value [2] of the same substance?
**A.** 1.49 L

**Q.** And the “V2 (apparent volume of distribution of the peripheral compartment), θV2” value [2]?
**A.** θV2=3.03(30) L

**Q.** And the “V2, fixed effect estimate” value [2]?
**A.** 2.97 L

**Q.** And the “individual estimates of CLKRT” value [2]?
**A.** 0.099 to 0.598 L/h

**Q.** What about the “model-predicted increase in CLR for an increment of 1 kg of body weight” value [2] of the same substance?
**A.** 0.016 L/h

**Q.** What about the “model-predicted increase in V1 for an increment of 1 kg of body weight” value [2] of the same substance?
**A.** 0.19 L

**Q.** And the “θFILT_Large, factor on CLKRT” value [2]?
**A.** 5.04

**Q.** What about the “θFILT_Med, factor on CLKRT” value [2] of the same substance?
**A.** 3.58

**Q.** And the “patients reaching target trough concentration (Cmin) of 10 mg/L” value [3]?
**A.** 59%

**Q.** And the “V1, values reported in the literature” value [4]?
**A.** 2.07 to 2.28 L

**Q.** What about the “renal clearance, published range” value [4] of the same substance?
**A.** 0.105 to 0.176 L/h
